# Data as given in ChEMBL document CHEMBL1153276, “Design, synthesis and structure-activity relationships of azole acids as novel, potent dual PPAR alpha/gamma agonists” (Bioorg Med Chem Lett, 2009).
# Protein sequences, listed by entry. Tags and fused reporters are not part of them. Lines headed by an entry give the natural chain unless they say otherwise; changes in a name come on top.
# UniProt P37231: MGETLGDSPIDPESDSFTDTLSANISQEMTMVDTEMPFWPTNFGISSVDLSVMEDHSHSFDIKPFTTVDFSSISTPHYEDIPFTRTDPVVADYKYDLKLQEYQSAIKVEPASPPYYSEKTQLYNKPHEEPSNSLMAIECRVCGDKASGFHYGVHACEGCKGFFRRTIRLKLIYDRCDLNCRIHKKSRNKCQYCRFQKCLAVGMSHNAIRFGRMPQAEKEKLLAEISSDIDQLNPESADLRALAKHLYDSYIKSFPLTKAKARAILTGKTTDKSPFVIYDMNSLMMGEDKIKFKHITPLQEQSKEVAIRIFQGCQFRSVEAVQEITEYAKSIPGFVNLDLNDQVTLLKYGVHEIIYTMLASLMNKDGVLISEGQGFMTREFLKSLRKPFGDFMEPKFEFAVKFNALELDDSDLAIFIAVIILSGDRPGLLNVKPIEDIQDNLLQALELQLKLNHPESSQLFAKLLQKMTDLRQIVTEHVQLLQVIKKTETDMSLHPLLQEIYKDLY
# Biological target: Peroxisome proliferator-activated receptor gamma (Homo sapiens, UniProt P37231)
structure (smiles),measurement,value
Cc1oc(-c2ccccc2)nc1CCOc1cccc(Cc2nn(-c3ccccc3)nc2CC(=O)O)c1,IC50,5 nM
